Laboratory results reported in PubChem BioAssay AID434977 (Johns Hopkins Ion Channel Center, 2010).
This is a selection; strong and weak results do not stand in their true shares. Some tests of the compounds listed are not included; inactive here does not mean inactive elsewhere. Calls of active or inactive are those of the source.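 Rule for the calls: active = calcium signal rise above buffer-control mean plus 5 SD in both duplicates, and also a hit in the primary screen; inactive = the rest.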

target: Short transient receptor potential channel 4 (Mus musculus) (UniProt Q9QUQ5); assay: calcium flux activators in TRPC4/5HT1a cells, counter-screen for TRPC4 activator project, cell-based, second counter screen, HEK293 TRPC4/5HT1a, Fluo-4 (AID 434977); conditions: Fluo-4 calcium flux, at 10 µM

Row | SMILES | outcome
1 | CN(C)c1ccc(C(=O)NCC2(N(C)C)CCCCC2)cc1 | inactive
